{"source": "paper PMC8720082", "test_system": "N=C(N)NCCC[C@H](N)C(=O)O", "assay": "purified protein", "details": "100 mM MES/KOH pH 6.5, 5 mM MgCl2, 37 °C, 0.5 to 20 mM L-arginine", "data": [{"substance": "SpyADI (native, unmodified) (Streptococcus pyogenes NZ131)", "values": [{"measurement": "Km", "result": "940 ± 300", "unit": "µM"}]}]}
